# What was measured:
# [1] = system: S. epidermidis ATCC 14990; assay: MIC and MBC determination (CLSI protocol), S. epidermidis; assay type: cell-based; details: Staphylococcus epidermidis, ATCC14990, 24 h, read-out: MIC S. epidermidis
# Procedure: (§1) The stock solutions (10 mg/mL) of the tested substances were prepared in distilled water and afterwards diluted to the appropriate concentration in Mueller–Hinton Bullion. In each well of a 96-well plate, 300 µL of the mixture was inoculated with 10 µL of the bacterial culture (final density~10^2 cfu/mL). […] Then, 10 µL of the suspension from each well was transferred to a fresh sterile medium and incubated for another 24 h at 37 °C. The lack of turbidity indicated bactericidal activity of the investigated substances and the MBC value was thus determined.
# S. aureus ATCC 25923 = assay: MIC and MBC determination (CLSI protocol), S. aureus; assay type: cell-based; details: Staphylococcus aureus, ATCC25923, 24 h, read-out: MIC S. aureus
# Procedure: as §1
compound,measurement,setting,value
"O=S(=O)(O)c1cccc2cccc(Nc3ccccc3)c12 [ANS, 8-anilino-1-naphthalenesulfonic acid]",MIC,[1],25 µg/mL
same,MIC,S. aureus ATCC 25923,200 µg/mL

# — PMC8780785, “Bioactive Properties of a Novel Antibacterial Dye Obtained from Laccase-Mediated Oxidation of 8-Anilino-1-naphthalenesulfonic Acid” (Molecules, 2022)
